Experimental data as given in US20050095240A1, “NaCT as a target for lifespan expansion and weight reduction” (Medical College of Georgia Research, priority 2002, published 2005).

Amino acid sequences for entries named in this document (tags omitted). A change or cut given only in a name is not applied to a line headed by its entry.
UniProt Q86YT5: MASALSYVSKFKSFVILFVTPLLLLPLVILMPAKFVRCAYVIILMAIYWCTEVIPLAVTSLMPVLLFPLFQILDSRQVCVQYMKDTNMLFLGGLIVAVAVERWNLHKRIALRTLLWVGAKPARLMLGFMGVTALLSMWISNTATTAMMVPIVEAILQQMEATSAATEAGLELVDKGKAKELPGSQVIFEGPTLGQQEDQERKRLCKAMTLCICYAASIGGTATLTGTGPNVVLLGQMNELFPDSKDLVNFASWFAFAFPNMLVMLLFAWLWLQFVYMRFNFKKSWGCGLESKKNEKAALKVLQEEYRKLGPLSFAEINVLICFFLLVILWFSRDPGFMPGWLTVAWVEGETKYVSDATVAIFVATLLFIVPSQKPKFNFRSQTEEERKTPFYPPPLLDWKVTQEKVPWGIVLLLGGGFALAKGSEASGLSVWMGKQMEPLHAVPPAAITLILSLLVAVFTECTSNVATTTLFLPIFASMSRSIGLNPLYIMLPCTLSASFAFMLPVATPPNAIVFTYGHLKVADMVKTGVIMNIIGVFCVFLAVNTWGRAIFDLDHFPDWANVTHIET

How the values were obtained:
Type in all cases: cell-based
zebrafish NaCT = target: T1, zebrafish NaCT (Danio rerio, UniProt A0A2R8QQN0, K78Q); test: Citrate uptake via zebrafish NaCT expressed in HRPE cells
T1 sequence (A0A2R8QQN0 2-582 K78Q): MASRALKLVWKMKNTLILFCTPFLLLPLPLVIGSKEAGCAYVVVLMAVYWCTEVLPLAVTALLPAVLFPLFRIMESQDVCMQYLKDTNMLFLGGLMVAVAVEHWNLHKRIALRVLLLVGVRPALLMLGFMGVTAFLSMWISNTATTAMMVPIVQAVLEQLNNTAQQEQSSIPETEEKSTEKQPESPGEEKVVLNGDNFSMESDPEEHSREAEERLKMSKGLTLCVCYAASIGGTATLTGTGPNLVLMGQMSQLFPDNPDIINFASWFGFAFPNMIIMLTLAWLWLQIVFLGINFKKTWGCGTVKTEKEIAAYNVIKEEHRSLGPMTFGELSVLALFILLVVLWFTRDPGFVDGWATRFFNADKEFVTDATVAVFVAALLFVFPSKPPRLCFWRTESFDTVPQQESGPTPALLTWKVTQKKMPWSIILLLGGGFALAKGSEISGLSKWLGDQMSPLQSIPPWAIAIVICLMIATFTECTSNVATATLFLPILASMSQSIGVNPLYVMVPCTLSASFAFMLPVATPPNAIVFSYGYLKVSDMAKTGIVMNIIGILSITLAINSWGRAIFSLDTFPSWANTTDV

human NaCT = human NaCT (Homo sapiens, UniProt Q86YT5); test: Uptake via human NaCT expressed in HRPE cells
mouse NaCT = target: T2, mouse NaCT (Mus musculus, UniProt Q67BT3); test: Transport via mouse NaCT expressed in HRPE cells
T2 sequence (Q67BT3 1-572): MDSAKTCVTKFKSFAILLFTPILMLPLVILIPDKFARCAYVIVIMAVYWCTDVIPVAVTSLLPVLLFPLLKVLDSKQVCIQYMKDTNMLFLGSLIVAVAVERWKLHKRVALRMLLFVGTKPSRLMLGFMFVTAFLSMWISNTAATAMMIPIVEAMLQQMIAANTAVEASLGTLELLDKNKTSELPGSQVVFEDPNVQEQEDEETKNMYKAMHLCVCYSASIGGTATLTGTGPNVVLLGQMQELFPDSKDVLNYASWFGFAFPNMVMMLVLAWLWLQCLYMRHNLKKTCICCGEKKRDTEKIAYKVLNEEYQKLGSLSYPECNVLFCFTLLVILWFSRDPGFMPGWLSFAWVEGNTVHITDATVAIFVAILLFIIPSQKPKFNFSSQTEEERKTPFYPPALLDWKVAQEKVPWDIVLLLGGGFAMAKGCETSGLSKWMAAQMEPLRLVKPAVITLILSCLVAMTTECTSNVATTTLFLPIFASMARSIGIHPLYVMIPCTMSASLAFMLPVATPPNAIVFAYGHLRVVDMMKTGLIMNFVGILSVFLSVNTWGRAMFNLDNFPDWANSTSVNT

SMILES | IC50 (zebrafish NaCT) | [^14C]-Citrate Uptake, % (human NaCT) | [^3H]-Succinate transport, % (mouse NaCT) | [^14C]-Citrate transport, % (mouse NaCT)
O=C(O)/C=C(/CC(=O)O)C(=O)O [cis-Aconitate, cis-aconitate] | 624 ± 45 µM | – | – | –
O=C(O)CC(C(=O)O)C(O)C(=O)O (stereo not shown) [Isocitrate] | – | 125% | 86% | 69%
